Among the data in ChEMBL document CHEMBL1148454, “[1-(3,5-difluoro-4-hydroxyphenyl)-1H-pyrrol-3-yl]phenylmethanone as a bioisostere of a carboxylic acid aldose reductase inhibitor” (J Med Chem, 2004) are IC50 values, retold here.

The target of the test is Aldo-keto reductase family 1 member B1 (Rattus norvegicus, UniProt P07943). The test can be described thus: In vitro inhibitory activity of compound against rat lens aldose reductase. An outline of the steps:
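Enzyme from lenses of Fischer-344 rats of both sexes. Activity followed spectrophotometrically as NADPH oxidation. Compounds dissolved in 0.2 M NaHCO3 and tested at five concentrations in triplicate. IC50 from least-squares analysis of the linear portions of log(dose)–response curves (0.880 < r2 < 0.993).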

Broadly, the IC50 is the concentration that inhibits the measured activity by half. Low readings indicate higher potency, high ones lower potency.

Molecule `O=C1NC(=O)[C@@]2(CCOc3ccc(F)cc32)N1` [SORBINIL] showed an IC50 of 0.25 µM.
